{"source": "ChEMBL document CHEMBL1139437", "about": "“Design, synthesis, and preliminary pharmacological evaluation of 4-aminopiperidine derivatives as N-type calcium channel blockers active on pain and neuropathic pain” (J Med Chem, 2004)", "biological_target": "Voltage-dependent N-type calcium channel subunit alpha-1B (Rattus norvegicus) (UniProt Q02294)", "test": "In vitro antagonism of N-type calcium channels expressed in PC12 cells was determined as the increase in intracellular calcium influx", "note": "pIC50: −log10 of the molar value."}
{"smiles": "Cl.NC1CCN(C(=O)CCC(c2ccc(F)cc2)c2ccc(F)cc2)CC1", "values": [{"measurement": "pIC50", "value": 5.99}]}
